Measured values taken from ChEMBL document CHEMBL3627626, “6-Substituted Pyrrolo[2,3-d]pyrimidine Thienoyl Regioisomers as Targeted Antifolates for Folate Receptor α and the Proton-Coupled Folate Transporter in Human Tumors” (J Med Chem, 2015).

What was measured:
R2 [1] = experiment: Cytotoxicity against PCFT-null Chinese hamster R2 cells assessed as cell growth inhibition after 96 hrs by CellTiter-Blue assay; format: cell-based, Cricetulus griseus; settings: R2, 96 h
R2 [2] = experiment: Cytotoxicity against Chinese hamster R2 cells transfected with empty PCDNA3 assessed as cell growth inhibition after 96 hrs by CellTiter-Blue assay; format: cell-based, Cricetulus griseus

For Nc1nc(N)c2c(CCCc3csc(C(=O)N[C@@H](CCC(=O)O)C(=O)O)c3)coc2n1, the IC50 (R2 [1]) was > 1000 nM and the IC50 (R2 [2]) was > 1000 nM.
